From ChEMBL document CHEMBL5674880 (PLoS One, 2018)

Sequences of proteins named here, by UniProt entry; tags and fusion partners are left off. A change or cut given only in a name is not applied to a line headed by its entry.
UniProt Q9NRG4: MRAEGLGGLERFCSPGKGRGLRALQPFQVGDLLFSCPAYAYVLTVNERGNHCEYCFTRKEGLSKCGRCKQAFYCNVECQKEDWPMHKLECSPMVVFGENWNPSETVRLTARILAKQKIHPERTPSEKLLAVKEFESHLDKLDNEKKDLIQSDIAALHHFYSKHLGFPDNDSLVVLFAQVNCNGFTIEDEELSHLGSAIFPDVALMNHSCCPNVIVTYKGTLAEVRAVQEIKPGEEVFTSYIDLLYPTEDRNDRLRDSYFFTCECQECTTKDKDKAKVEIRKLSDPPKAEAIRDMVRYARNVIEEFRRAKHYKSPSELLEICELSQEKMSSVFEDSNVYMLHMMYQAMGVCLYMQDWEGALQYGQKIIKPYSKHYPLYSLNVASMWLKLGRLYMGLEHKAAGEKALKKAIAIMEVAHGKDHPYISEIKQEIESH

Target: N-lysine methyltransferase SMYD2 (Homo sapiens, UniProt Q9NRG4)
Assay: Inhibition of N-terminal 2xc-myc-tagged SMYD2 (unknown origin) transfected in KYSE-150 cells assessed as methylation activity by Western blot analysis
Type: cell-based, KYSE-150 cell line

IC50: 58 nM
SMILES: CCN(C(=O)CO)[C@H]1CN(/C(=N\C#N)Nc2cccc(OC(F)F)c2)N=C1c1ccc(Cl)c(Cl)c1
